This assay addresses rat Y1 receptor (association with β-arrestin2) (Rattus norvegicus, UniProt P21555). Description: cell-based. The note with it: pA2 (Schild plot), pooled, 30 min pre-incubation, NPY 60 min.

The chains behind the UniProt entries cited, without tags or fusion partners. Residues count along the entry.
UniProt P21555, 2-382: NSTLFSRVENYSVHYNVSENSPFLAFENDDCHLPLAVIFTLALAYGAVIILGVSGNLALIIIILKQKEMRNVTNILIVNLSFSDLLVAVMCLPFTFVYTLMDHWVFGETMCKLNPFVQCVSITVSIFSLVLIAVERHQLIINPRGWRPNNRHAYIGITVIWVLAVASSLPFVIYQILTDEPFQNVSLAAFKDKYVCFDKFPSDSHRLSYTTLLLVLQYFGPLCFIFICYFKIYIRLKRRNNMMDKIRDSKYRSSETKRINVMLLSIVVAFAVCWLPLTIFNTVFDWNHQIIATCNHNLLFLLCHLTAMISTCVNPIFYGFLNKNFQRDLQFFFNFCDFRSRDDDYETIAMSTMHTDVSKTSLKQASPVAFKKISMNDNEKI

One compound from paper PMC2901518 (British Journal of Pharmacology, 2010) can be followed below.

In turn, `N=C(N)NCCC[C@@H](NC(=O)C(c1ccccc1)c1ccccc1)C(=O)NCc1ccc(O)cc1` [BIBP3226, (R)-N2-(diphenylacetyl)-N-[(4-hydroxyphenyl)methyl]-argininamide] had a Kb of 0.01 µM.
